{"source": "patent US20260199359A1", "about": "(INCYTE CORPORATION, priority 2021, published 2026)", "conditions": "mean of n = 3", "note": "Where two headings read alike, the source gives them in different places."}
{"smiles": "N#CC[C@H](C1CCCC1)n1cc(-c2ncnc3[nH]ccc23)cn1", "note": "[Ruxolitinib phosphate, ruxolitinib phosphate]", "values": [{"measurement": "Solubility (% w/w) Ruxolitinib phosphate", "setting": "Buffer (pH 5), loaded at 0.1% w/w drug (in terms of freebase)", "result": 0.04, "unit": "% w/w"}, {"measurement": "Solubility (% w/w) Ruxolitinib phosphate", "setting": "Buffer (pH 7), loaded at 0.1% w/w drug (in terms of freebase)", "result": 0.03, "unit": "% w/w"}, {"measurement": "Solubility (% w/w) Ruxolitinib phosphate", "setting": "Deionised (unbuffered) water, in terms of salt form", "result": "about 1.8 % w/w"}]}
